{"source": "ChEMBL document CHEMBL3822419", "about": "“Rational Design of Potent and Selective Inhibitors of an Epoxide Hydrolase Virulence Factor from Pseudomonas aeruginosa” (J Med Chem, 2016)", "assay": "Inhibition of Pseudomonas aeruginosa recombinant His-tagged CFTR inhibitory factor expressed in expressed in Top10 Escherichia coli cells assessed as formation of 6-methoxy-2-naphthaldehyde preincubated for 5 mins followed by addition of CMNGC as substrate measured for 10 mins in presence of BSA by fluorescent-based assay", "method_in_brief": "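Recombinant His-tagged Cif (0.6 µM) preincubated with inhibitor 5 min at 37 °C in 20 mM sodium phosphate pH 7.0, 50 mM NaCl, 0.1 mg/mL BSA; CMNGC substrate 25 µM added. 6-Methoxy-2-naphthaldehyde formation read at ex 330/em 465 nm for 10 min. IC50 is the mean of triplicates, with at least two points above and two below it. No-enzyme controls were run for inhibitor fluorescence.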", "data": [{"compound": "CC(C)c1cc(Oc2c(Br)cc(NC(=O)CC(=O)O)cc2Br)ccc1O", "note": "[EPROTIROME]", "values": [{"measurement": "IC50", "value": 2.6, "unit": "µM"}]}]}
